B1: RAC-alpha serine/threonine-protein kinase (Homo sapiens), P31749 (parent)
chain: MSDVAIVKEGWLHKRGEYIKTWRPRYFLLKNDGTFIGYKERPQDVDQREAPLNNFSVAQCQLMKTERPRPNTFIIRCLQWTTVIERTFHVETPEEREEWTTAIQTVADGLKKQEEEEMDFRSGSPSDNSGAEEMEVSLAKPKHRVTMNEFEYLKLLGKGTFGKVILVKEKATGRYYAMKILKKEVIVAKDEVAHTLTENRVLQNSRHPFLTALKYSFQTHDRLCFVMEYANGGELFFHLSRERVFSEDRARFYGAEIVSALDYLHSEKNVVYRDLKLENLMLDKDGHIKITDFGLCKEGIKDGATMKTFCGTPEYLAPEVLEDNDYGRAVDWWGLGVVMYEMMCGRLPFYNQDHEKLFELILMEEIRFPRTLGPEAKSLLSGLLKKDPKQRLGGGSEDAKEIMQHRFFAGIVWQHVYEKKLSPPFKPQVTSETDTRYFDEEFTAQMITITPPDQDDSMECVDSERRPHFPQFSYSASGTA

Variants of: B1
Conditions: with erbb4_human ERBB4, Q15303

Variant	effect of a mutation on the interaction
MSDVAIVKEGWLHKRGKYIKTWRPRYFLLKNDGTFIGYKERPQDVDQREAPLNNFSVAQCQLMKTERPRPNTFIIRCLQWTTVIERTFHVETPEEREEWTTAIQTVADGLKKQEEEEMDFRSGSPSDNSGAEEMEVSLAKPKHRVTMNEFEYLKLLGKGTFGKVILVKEKATGRYYAMKILKKEVIVAKDEVAHTLTENRVLQNSRHPFLTALKYSFQTHDRLCFVMEYANGGELFFHLSRERVFSEDRARFYGAEIVSALDYLHSEKNVVYRDLKLENLMLDKDGHIKITDFGLCKEGIKDGATMKTFCGTPEYLAPEVLEDNDYGRAVDWWGLGVVMYEMMCGRLPFYNQDHEKLFELILMEEIRFPRTLGPEAKSLLSGLLKKDPKQRLGGGSEDAKEIMQHRFFAGIVWQHVYEKKLSPPFKPQVTSETDTRYFDEEFTAQMITITPPDQDDSMECVDSERRPHFPQFSYSASGTA [E17K]	causing an interaction

Variants of: B1
Conditions: with esr1_human ESR1, P03372

Variant	effect of a mutation on the interaction
MSDVAIVKEGWLHKRGKYIKTWRPRYFLLKNDGTFIGYKERPQDVDQREAPLNNFSVAQCQLMKTERPRPNTFIIRCLQWTTVIERTFHVETPEEREEWTTAIQTVADGLKKQEEEEMDFRSGSPSDNSGAEEMEVSLAKPKHRVTMNEFEYLKLLGKGTFGKVILVKEKATGRYYAMKILKKEVIVAKDEVAHTLTENRVLQNSRHPFLTALKYSFQTHDRLCFVMEYANGGELFFHLSRERVFSEDRARFYGAEIVSALDYLHSEKNVVYRDLKLENLMLDKDGHIKITDFGLCKEGIKDGATMKTFCGTPEYLAPEVLEDNDYGRAVDWWGLGVVMYEMMCGRLPFYNQDHEKLFELILMEEIRFPRTLGPEAKSLLSGLLKKDPKQRLGGGSEDAKEIMQHRFFAGIVWQHVYEKKLSPPFKPQVTSETDTRYFDEEFTAQMITITPPDQDDSMECVDSERRPHFPQFSYSASGTA [E17K]	causing an interaction

Variants of: B1
Conditions: with etv1_human ETV1, P50549

Variant	effect of a mutation on the interaction
MSDVAIVKEGWLHKRGKYIKTWRPRYFLLKNDGTFIGYKERPQDVDQREAPLNNFSVAQCQLMKTERPRPNTFIIRCLQWTTVIERTFHVETPEEREEWTTAIQTVADGLKKQEEEEMDFRSGSPSDNSGAEEMEVSLAKPKHRVTMNEFEYLKLLGKGTFGKVILVKEKATGRYYAMKILKKEVIVAKDEVAHTLTENRVLQNSRHPFLTALKYSFQTHDRLCFVMEYANGGELFFHLSRERVFSEDRARFYGAEIVSALDYLHSEKNVVYRDLKLENLMLDKDGHIKITDFGLCKEGIKDGATMKTFCGTPEYLAPEVLEDNDYGRAVDWWGLGVVMYEMMCGRLPFYNQDHEKLFELILMEEIRFPRTLGPEAKSLLSGLLKKDPKQRLGGGSEDAKEIMQHRFFAGIVWQHVYEKKLSPPFKPQVTSETDTRYFDEEFTAQMITITPPDQDDSMECVDSERRPHFPQFSYSASGTA [E17K]	causing an interaction

Variants of: B1
Conditions: with ezh1_human EZH1, Q92800

Variant	effect of a mutation on the interaction
MSDVAIVKEGWLHKRGKYIKTWRPRYFLLKNDGTFIGYKERPQDVDQREAPLNNFSVAQCQLMKTERPRPNTFIIRCLQWTTVIERTFHVETPEEREEWTTAIQTVADGLKKQEEEEMDFRSGSPSDNSGAEEMEVSLAKPKHRVTMNEFEYLKLLGKGTFGKVILVKEKATGRYYAMKILKKEVIVAKDEVAHTLTENRVLQNSRHPFLTALKYSFQTHDRLCFVMEYANGGELFFHLSRERVFSEDRARFYGAEIVSALDYLHSEKNVVYRDLKLENLMLDKDGHIKITDFGLCKEGIKDGATMKTFCGTPEYLAPEVLEDNDYGRAVDWWGLGVVMYEMMCGRLPFYNQDHEKLFELILMEEIRFPRTLGPEAKSLLSGLLKKDPKQRLGGGSEDAKEIMQHRFFAGIVWQHVYEKKLSPPFKPQVTSETDTRYFDEEFTAQMITITPPDQDDSMECVDSERRPHFPQFSYSASGTA [E17K]	causing an interaction

Variants of: B1
Conditions: with ezh2_human EZH2, Q15910

Variant	effect of a mutation on the interaction
MSDVAIVKEGWLHKRGKYIKTWRPRYFLLKNDGTFIGYKERPQDVDQREAPLNNFSVAQCQLMKTERPRPNTFIIRCLQWTTVIERTFHVETPEEREEWTTAIQTVADGLKKQEEEEMDFRSGSPSDNSGAEEMEVSLAKPKHRVTMNEFEYLKLLGKGTFGKVILVKEKATGRYYAMKILKKEVIVAKDEVAHTLTENRVLQNSRHPFLTALKYSFQTHDRLCFVMEYANGGELFFHLSRERVFSEDRARFYGAEIVSALDYLHSEKNVVYRDLKLENLMLDKDGHIKITDFGLCKEGIKDGATMKTFCGTPEYLAPEVLEDNDYGRAVDWWGLGVVMYEMMCGRLPFYNQDHEKLFELILMEEIRFPRTLGPEAKSLLSGLLKKDPKQRLGGGSEDAKEIMQHRFFAGIVWQHVYEKKLSPPFKPQVTSETDTRYFDEEFTAQMITITPPDQDDSMECVDSERRPHFPQFSYSASGTA [E17K]	causing an interaction

Variants of: B1
Conditions: with facd2_human FANCD2, Q9BXW9

Variant	effect of a mutation on the interaction
MSDVAIVKEGWLHKRGKYIKTWRPRYFLLKNDGTFIGYKERPQDVDQREAPLNNFSVAQCQLMKTERPRPNTFIIRCLQWTTVIERTFHVETPEEREEWTTAIQTVADGLKKQEEEEMDFRSGSPSDNSGAEEMEVSLAKPKHRVTMNEFEYLKLLGKGTFGKVILVKEKATGRYYAMKILKKEVIVAKDEVAHTLTENRVLQNSRHPFLTALKYSFQTHDRLCFVMEYANGGELFFHLSRERVFSEDRARFYGAEIVSALDYLHSEKNVVYRDLKLENLMLDKDGHIKITDFGLCKEGIKDGATMKTFCGTPEYLAPEVLEDNDYGRAVDWWGLGVVMYEMMCGRLPFYNQDHEKLFELILMEEIRFPRTLGPEAKSLLSGLLKKDPKQRLGGGSEDAKEIMQHRFFAGIVWQHVYEKKLSPPFKPQVTSETDTRYFDEEFTAQMITITPPDQDDSMECVDSERRPHFPQFSYSASGTA [E17K]	causing an interaction

Variants of: B1
Conditions: with fgf19_human FGF19, O95750

Variant	effect of a mutation on the interaction
MSDVAIVKEGWLHKRGKYIKTWRPRYFLLKNDGTFIGYKERPQDVDQREAPLNNFSVAQCQLMKTERPRPNTFIIRCLQWTTVIERTFHVETPEEREEWTTAIQTVADGLKKQEEEEMDFRSGSPSDNSGAEEMEVSLAKPKHRVTMNEFEYLKLLGKGTFGKVILVKEKATGRYYAMKILKKEVIVAKDEVAHTLTENRVLQNSRHPFLTALKYSFQTHDRLCFVMEYANGGELFFHLSRERVFSEDRARFYGAEIVSALDYLHSEKNVVYRDLKLENLMLDKDGHIKITDFGLCKEGIKDGATMKTFCGTPEYLAPEVLEDNDYGRAVDWWGLGVVMYEMMCGRLPFYNQDHEKLFELILMEEIRFPRTLGPEAKSLLSGLLKKDPKQRLGGGSEDAKEIMQHRFFAGIVWQHVYEKKLSPPFKPQVTSETDTRYFDEEFTAQMITITPPDQDDSMECVDSERRPHFPQFSYSASGTA [E17K]	causing an interaction

Variants of: B1
Conditions: with fgfp1_human FGFBP1

Variant	effect of a mutation on the interaction
MSDVAIVKEGWLHKRGKYIKTWRPRYFLLKNDGTFIGYKERPQDVDQREAPLNNFSVAQCQLMKTERPRPNTFIIRCLQWTTVIERTFHVETPEEREEWTTAIQTVADGLKKQEEEEMDFRSGSPSDNSGAEEMEVSLAKPKHRVTMNEFEYLKLLGKGTFGKVILVKEKATGRYYAMKILKKEVIVAKDEVAHTLTENRVLQNSRHPFLTALKYSFQTHDRLCFVMEYANGGELFFHLSRERVFSEDRARFYGAEIVSALDYLHSEKNVVYRDLKLENLMLDKDGHIKITDFGLCKEGIKDGATMKTFCGTPEYLAPEVLEDNDYGRAVDWWGLGVVMYEMMCGRLPFYNQDHEKLFELILMEEIRFPRTLGPEAKSLLSGLLKKDPKQRLGGGSEDAKEIMQHRFFAGIVWQHVYEKKLSPPFKPQVTSETDTRYFDEEFTAQMITITPPDQDDSMECVDSERRPHFPQFSYSASGTA [E17K]	causing an interaction
